The list is not random: actives were taken first. Their share in the collection is about 1.8%.
AF4-AF9 inh: inhibitors of AF4 peptide binding to AF9, primary screen, biochemical, AlphaScreen, biotin-AF4 peptide, FLAG-AF9, single point; Protein AF-9 (Homo sapiens), P42568; inhibition, % at 10 µM; actives 0.47% (n = 350,000);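 active means every replicate reaching a set inhibition limit, whatever the replicate mean, cut at about 25% in these data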;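 further: 0% = plate neutral control median and 100% = total signal loss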
RAD52 anneal inh: RAD52 DNA annealing inhibitors, primary screen, biochemical, FRET, single point, set 2; inhibition, % at 18.7 µM; AID 651710, 2012; recombinant RAD52 DNA annealing, FRET fluorescence; actives 0.46% (n = 360,000); DNA repair protein RAD52 homolog (Homo sapiens), P43351;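 active means every replicate showing at least 50% inhibition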
E-sel inducer: E-selectin induction in HUVECs, primary screen, imaging, HUVEC, immunofluorescence imaging, single point. AID 686992, 2013. activation, % at 7.58 µM. normalized: neutral wells 0, TNF-alpha wells 100. P16581. actives 0.37% (n = 260,000);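 active means mean E-selectin-positive cell signal at least 10% of the positive control, reached in at least 60% of replicates, without over 20% cell loss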
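System: HUVEC / Compound: single concentration / Signal: immunofluorescence imaging / Read-out: percent E-selectin-positive cells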
SIRT5 block: SIRT5 desuccinylase inhibitors, primary screen, biochemical, fluorescence imaging, single point, set 5; AID 652115, 2013; actives 1.1% (n = 330,000); NAD-dependent protein deacylase sirtuin-5, mitochondrial (Homo sapiens), Q9NXA8; inhibition, % at 15 µM; Purified SirT5, succinyl-peptide AMC, trypsin-coupled fluorescence; in the data active means inhibition above about 15%
RAD54 inh: inhibitors of human RAD54 branch migration, primary screen, biochemical, fluorescence, single point; DNA repair and recombination protein RAD54-like (Homo sapiens), Q92698; RAD54 Holliday junction branch migration, FAM/BHQ fluorescence; actives 0.14% (n = 360,000); inhibition, % at 10.4 µM;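 active means mean normalized replicate activity at least 40 and at least half of replicates scoring 40 or more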;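 further: 0% = median of neutral control wells and 100% = median of positive control wells; inhibitors cause a drop in the FAM fluorescence signal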
UUG fidelity: yeast start codon fidelity modulation | S. cerevisiae UUG-firefly luciferase reporter, luminescence/redox ratio | activity score, % at 18.7 µM | 0.13% of 350,000 active | AID 602363;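 active means replicate mean at a twofold rise or more, about +100% in these data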;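 further: firefly luciferase made from a UUG start codon reports start codon fidelity; reporter light over untreated wells divided by growth signal over untreated wells; some hits fall short of that in this replicate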
An asterisk follows results filed as active; · = not tested or not shown.

The chains behind the UniProt entries cited, without tags or fusion partners.
Protein AF-9 (Homo sapiens), P42568, UniProt P42568, whole entry, looked up: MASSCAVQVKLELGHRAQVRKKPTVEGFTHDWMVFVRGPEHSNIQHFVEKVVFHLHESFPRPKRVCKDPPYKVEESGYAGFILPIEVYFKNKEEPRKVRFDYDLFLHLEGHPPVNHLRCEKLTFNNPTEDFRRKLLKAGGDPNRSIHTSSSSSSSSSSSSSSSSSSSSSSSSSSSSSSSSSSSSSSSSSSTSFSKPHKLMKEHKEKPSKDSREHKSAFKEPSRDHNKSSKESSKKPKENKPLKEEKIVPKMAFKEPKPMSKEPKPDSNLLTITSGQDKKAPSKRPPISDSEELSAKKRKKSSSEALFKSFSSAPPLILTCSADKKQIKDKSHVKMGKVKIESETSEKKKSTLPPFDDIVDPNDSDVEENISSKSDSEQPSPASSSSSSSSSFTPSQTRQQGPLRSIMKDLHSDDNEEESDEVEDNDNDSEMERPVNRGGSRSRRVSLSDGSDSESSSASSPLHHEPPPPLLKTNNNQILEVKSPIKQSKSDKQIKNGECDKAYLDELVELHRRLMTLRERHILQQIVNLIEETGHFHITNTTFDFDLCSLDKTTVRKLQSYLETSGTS
DNA repair and recombination protein RAD54-like (Homo sapiens), Q92698, UniProt Q92698, whole entry, looked up: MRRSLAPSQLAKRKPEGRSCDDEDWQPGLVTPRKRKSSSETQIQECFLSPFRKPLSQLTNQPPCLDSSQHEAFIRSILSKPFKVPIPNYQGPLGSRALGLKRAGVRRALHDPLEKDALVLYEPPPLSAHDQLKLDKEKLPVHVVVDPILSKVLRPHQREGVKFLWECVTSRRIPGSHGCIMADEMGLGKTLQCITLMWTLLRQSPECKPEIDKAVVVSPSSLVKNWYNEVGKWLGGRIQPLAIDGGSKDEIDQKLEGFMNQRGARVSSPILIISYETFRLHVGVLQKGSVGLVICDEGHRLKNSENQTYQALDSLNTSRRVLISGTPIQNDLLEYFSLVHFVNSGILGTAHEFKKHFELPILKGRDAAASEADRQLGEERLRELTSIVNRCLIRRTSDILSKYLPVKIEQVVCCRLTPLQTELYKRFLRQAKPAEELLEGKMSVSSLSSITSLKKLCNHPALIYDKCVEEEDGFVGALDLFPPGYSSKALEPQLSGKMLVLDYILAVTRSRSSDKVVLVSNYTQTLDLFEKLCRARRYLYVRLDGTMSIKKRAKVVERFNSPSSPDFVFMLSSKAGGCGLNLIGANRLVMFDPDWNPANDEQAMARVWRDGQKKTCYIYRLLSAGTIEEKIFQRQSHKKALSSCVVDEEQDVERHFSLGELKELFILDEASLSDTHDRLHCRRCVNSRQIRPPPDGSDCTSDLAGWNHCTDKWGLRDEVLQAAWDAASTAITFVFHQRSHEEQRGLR

Screens by letter – A = AF4-AF9 inh; B = RAD52 anneal inh; C = E-sel inducer; D = SIRT5 block; E = RAD54 inh; F = UUG fidelity
Compound: C[C@H]1CCCCO[C@H](CN(C)C(=O)Cc2ccccc2)[C@@H](C)CN([C@@H](C)CO)C(=O)c2cc(NC(=O)Nc3ccc4c(c3)OCO4)ccc2O1
  A: 4; B: 14; C: 0; D: 7; E: 2; F: -20

Compound: C[C@H](CO)N1C[C@H](C)[C@@H](CN(C)S(=O)(=O)c2ccc(Cl)cc2)Oc2ccc(NC(=O)C3CC3)cc2CC1=O
  A: -1; B: -6; C: 0; D: -3; E: 0; F: 4

Compound: O=C(COC(=O)/C=C/c1cccc([N+](=O)[O-])c1)Nc1cccnc1Cl
  A: 0; B: -17; C: 124*; D: ·; E: ·; F: ·

Compound: CCC(=O)N1C[C@H](C)[C@@H](OC)CN(C)C(=O)c2cc(NC(=O)NC3CCCC3)ccc2OC[C@H]1C
  A: -11; B: 15; C: 1; D: ·; E: ·; F: ·

Compound: CN1[C@@H]2c3ccc(-c4ccc(F)cc4)c(=O)n3C[C@@H]2[C@@H](CO)[C@@H]1C(=O)Nc1ccccc1
  A: 2; B: 10; C: 0; D: 3; E: 6; F: ·

Compound: COc1ccc(NS(=O)(=O)c2cccc(Cl)c2Cl)cc1S(=O)(=O)N1CCCCC1
  A: 3; B: -27; C: 134*; D: -3; E: ·; F: ·

Compound: CC(=O)N(C)C[C@H]1Oc2cc(C3=CCCC3)ccc2S(=O)(=O)N([C@@H](C)CO)C[C@H]1C
  A: 0; B: 0; C: 0; D: -3; E: -12; F: 2

Compound: O=C(CSc1ccc(-c2ccccc2)nn1)c1cccs1
  A: -4; B: -15; C: 1; D: 16*; E: ·; F: ·

Compound: COc1ccc(-c2ccc(SCC(=O)c3cccs3)nn2)cc1
  A: -1; B: -23; C: ·; D: -2; E: ·; F: ·

Compound: COc1ccc(C(=O)N2C[C@@H]3[C@H](c4ccccc42)[C@H](CO)N3Cc2ccc(Cl)cc2)cc1
  A: -1; B: -7; C: 0; D: -1; E: -5; F: 4

Compound: Cc1ccsc1C(=O)NNC(=O)CCN1CCN(c2ccccc2)CC1
  A: -1; B: 4; C: ·; D: 19*; E: ·; F: ·

Compound: Cc1ccc(-n2cc(CN3CCN(Cc4nccn4C)CC3)c(-c3cccc(C)c3)n2)cc1
  A: 29*; B: 12; C: 7; D: 2; E: -2; F: -3

Compound: Cc1ccc(-n2cc(CN3CCNC(=O)CC3)c(-c3cccc(C)c3)n2)cc1
  A: 7; B: -13; C: ·; D: 4; E: 5; F: 1

Compound: CC=Cc1ccc2n(c1=O)C[C@@H]1[C@@H](CO)[C@H](C(=O)NCCC)[C@H]2N1C(=O)C1CCC1 (mixture of isomers)
  A: -13; B: -5; C: 0; D: ·; E: ·; F: ·

Compound: CN(Cc1ccccc1)C(c1ccnc2ccccc12)c1nnnn1-c1ccc2c(c1)OCCO2 (stereo not given)
  A: 1; B: -1; C: 0; D: 39*; E: ·; F: ·

Complete entries as entered above. Order of values: AF4-AF9 inh | RAD52 anneal inh | E-sel inducer | SIRT5 block | RAD54 inh | UUG fidelity
CCC(=O)N1C[C@H](C)[C@@H](OC)CN(C)C(=O)c2cc(NC(=O)NC3CCCC3)ccc2OC[C@H]1C is entered as -11 | 15 | 1 | · | · | ·
C[C@H](CO)N1C[C@H](C)[C@@H](CN(C)S(=O)(=O)c2ccc(Cl)cc2)Oc2ccc(NC(=O)C3CC3)cc2CC1=O is entered as -1 | -6 | 0 | -3 | 0 | 4
COc1ccc(-c2ccc(SCC(=O)c3cccs3)nn2)cc1 is entered as -1 | -23 | · | -2 | · | ·

Later entries
Screens by letter – A = AF4-AF9 inh; B = RAD52 anneal inh; C = E-sel inducer; D = SIRT5 block; E = RAD54 inh; F = UUG fidelity
Compound: CN(C)CCN(Cc1ccccc1)C(c1ccnc2ccccc12)c1nnnn1-c1ccc2c(c1)OCCO2 (stereo not given)
  A: 5; B: -9; C: -1; D: -7; E: ·; F: ·

Compound: C[C@@H]1CN([C@H](C)CO)C(=O)c2cc(NS(=O)(=O)c3ccc(Cl)cc3)ccc2O[C@@H](C)CCCCO[C@@H]1CN(C)S(C)(=O)=O
  A: -3; B: -9; C: 0; D: 3; E: -1; F: 1

Compound: COc1ccc(C2CC(c3ccccc3O)=NN2C(=O)c2ccccc2)cc1OC (stereo not given)
  A: 41*; B: -8; C: 0; D: 6; E: 13; F: -9

Compound: COc1ccc(C2CC(c3cccs3)=NN2C(=O)c2ccccc2)cc1OC (stereo not given)
  A: 14; B: -7; C: ·; D: -1; E: -3; F: 7

Compound: C[C@@H]1CN([C@@H](C)CO)C(=O)Cc2cc(NS(=O)(=O)c3ccc(Cl)cc3)ccc2O[C@H]1CN(C)Cc1ccc(Oc2ccccc2)cc1
  A: 3; B: 40; C: 0; D: 24*; E: 3; F: 18

Compound: COc1ccc(CN(C)C[C@H]2Oc3ccc(NS(=O)(=O)c4ccc(Cl)cc4)cc3CC(=O)N([C@@H](C)CO)C[C@@H]2C)cc1
  A: 9; B: 41; C: 0; D: 27*; E: 2; F: 2

Compound: C[C@@H]1CN([C@@H](C)CO)C(=O)Cc2cc(NS(=O)(=O)c3ccccc3)ccc2O[C@H]1CN(C)Cc1ccc(Oc2ccccc2)cc1
  A: 2; B: 40; C: 0; D: 14; E: 7; F: 15

Compound: C[C@@H]1CN([C@H](C)CO)C(=O)Cc2cc(NS(=O)(=O)c3ccc(Cl)cc3)ccc2O[C@@H]1CN(C)Cc1ccc(Oc2ccccc2)cc1
  A: 1; B: 7; C: 0; D: 11; E: -1; F: 12

Compound: C[C@H]1CN([C@@H](C)CO)C(=O)Cc2cc(NS(C)(=O)=O)ccc2O[C@@H]1CN(C)Cc1ccc(Oc2ccccc2)cc1
  A: 1; B: 7; C: 169*; D: 7; E: -13; F: 4

Compound: C[C@H](CO)N1C[C@H](C)[C@@H](CN(C)Cc2ccc(Oc3ccccc3)cc2)Oc2ccc(NS(=O)(=O)c3ccc(Cl)cc3)cc2CC1=O
  A: 4; B: 34; C: 0; D: 19*; E: -11; F: 10

Compound: CCCNC(=O)N1C[C@H](O)COC[C@@H]2O[C@H](CC(=O)N3CCC(Cc4ccccc4)CC3)CC[C@H]21
  A: -2; B: -4; C: 0; D: 11; E: 2; F: ·

Compound: CO[C@@H]1CN(C)C(=O)c2cc(NC(=O)c3cccc(F)c3)ccc2OC[C@H](C)NC[C@@H]1C
  A: -6; B: 10; C: 0; D: 2; E: 14; F: -2

Compound: Cc1noc(C)c1NC(=O)N(C)C[C@@H]1Oc2ccc(NC(=O)Nc3cccc4ccccc34)cc2CC(=O)N([C@@H](C)CO)C[C@@H]1C
  A: -1; B: 4; C: 0; D: 5; E: 0; F: 13

Compound: Cc1ccc(S(=O)(=O)Nc2ccc3c(c2)CC(=O)N([C@@H](C)CO)C[C@@H](C)[C@@H](CN(C)Cc2ccc(Oc4ccccc4)cc2)O3)cc1
  A: -1; B: -10; C: -1; D: 18*; E: -7; F: 10

Compound: Cc1ccc(S(=O)(=O)Nc2ccc3c(c2)CC(=O)N([C@@H](C)CO)C[C@H](C)[C@H](CN(C)Cc2ccc(Oc4ccccc4)cc2)O3)cc1
  A: -10; B: 5; C: 0; D: 1; E: 0; F: 10

Compound: COc1ccc(S(=O)(=O)Nc2ccc3c(c2)CC(=O)N([C@H](C)CO)C[C@@H](C)[C@@H](CN(C)Cc2ccc(Oc4ccccc4)cc2)O3)cc1
  A: 5; B: 25; C: 0; D: 16*; E: -5; F: 5

Compound: COc1ccc(S(=O)(=O)Nc2ccc3c(c2)CC(=O)N([C@H](C)CO)C[C@H](C)[C@H](CN(C)Cc2ccc(Oc4ccccc4)cc2)O3)cc1
  A: 2; B: 19; C: 1; D: 12; E: -7; F: 2

Compound: CN1CCN(C(=O)C[C@@H]2CC[C@@H]3[C@H](COC[C@@H](O)CN3CC3CCCCC3)O2)CC1
  A: -1; B: 0; C: 0; D: -15; E: 1; F: -3

Compound: C[C@@H]1CN([C@H](C)CO)C(=O)c2cc(C#CC3CC3)cnc2O[C@@H]1CN(C)C(=O)Nc1ccc(F)cc1
  A: 1; B: 0; C: 0; D: 1; E: ·; F: ·
